# Data published in patent US9580508B2, “Bispecific EGFR/c-Met antibodies” (Janssen Biotech, Inc., priority 2012, dated 2017).
# Where “and” joins values, the source holds several entries; their conditions need not be identical. Identical values can stand only once. Like-named read-outs stand apart in the source and are kept apart here.
# What was measured:
# [1] = tested on: H292-HGF human lung cancer xenograft
# NCI-H292 cells [2] = experiment: ADCC assay, NCI-H292 target cells; type: cell-based, human
# NCI-H292-HGF cells = experiment: NCI-H292-HGF xenograft tumor efficacy with EM1-mAb; type: in vivo, SCID Beige mice; conditions: H292-HGF small tumor, day 35, 20 mg per kg
# [3] = tested on: H1975 cells expressing human HGF; experiment: H1975-HGF xenograft tumor efficacy; type: in vivo, nude mice; conditions: H1975-HGF NSCLC, day 16; mAbs 10 mg/kg BIWx3wk, erlotinib 50, afatinib 15 mg/kg QDx21d
# NCI-H292 cells [4] = experiment: NCI-H292 growth/viability with antibodies (standard 2D and low attachment); type: cell-based, human; conditions: NCI-H292, […] HGF, 72 hours
# H1975 cells = experiment: H1975 xenograft tumor efficacy; type: in vivo, nude mice; conditions: H1975 NSCLC, day 18, mAbs 10 mg/kg BIWx3wk, erlotinib 50, afatinib 15 mg/kg QDx21d
# NCI-H1993 cells = experiment: ADCC assay, NCI-H1993 target cells; type: cell-based, human
# NCI-H1975 cells [5] = experiment: NCI-H1975 growth/viability with antibodies (standard 2D and low attachment); type: cell-based, human; conditions: NCI-H1975, […] HGF, 72 hours
# SNU-5 cells = experiment: SNU-5 xenograft tumor efficacy; type: in vivo, CR17/SCID mice; conditions: SNU-5 gastric, day 34, 10 mg/kg BIWx4wk
# NCI-H441 cells = experiment: ADCC assay, NCI-H441 target cells; type: cell-based, human
# [6] = tested on: SKMES-HGF human squamous cell carcinoma; experiment: SKMES-HGF xenograft tumor efficacy with EM1-mAb; type: in vivo, SCID Beige mice
# NCI-H1975 cells [7] = experiment: ADCC assay, NCI-H1975 target cells; type: cell-based, human
# [8] = read-out: Standard 2D culture IC50
# [9] = SKMES-HGF large tumor, day 35, 20 mg per kg
# [10] = SKMES-HGF small tumor, day 67, 20 mg per kg
substance,measurement,setting,value
cetuximab,Tumor volume (mm^3),[1]; day 7 (start of treatment),139 ± 10 mm^3
same,Tumor volume (mm^3),[1]; day 9,168 ± 13 mm^3
same,Tumor volume (mm^3),[1]; day 13,212 ± 20 mm^3
same,Tumor volume (mm^3),[1]; day 16,252 ± 28 mm^3
same,Tumor volume (mm^3),[1]; day 20,371 ± 48 mm^3
same,Tumor volume (mm^3),[1]; day 27,640 ± 82 mm^3
same,Tumor volume (mm^3),[1]; day 30,869 ± 100 mm^3
same,Antitumor activity / response,"[1]; mouse, in vivo",significant antitumor activities
same,Tolerability / body weight loss,"[1]; mouse, in vivo",well tolerated
same,T − C (days) at 1000 mm^3,[1]; tumor growth delay vs vehicle,17 days
same,Efficacy (maximum lysis achieved),NCI-H292 cells [2],12%
same,Potency (EC50 μg/ml),NCI-H292 cells [2],0.0064 µg/mL
same,Complete regression,NCI-H292-HGF cells,0/10
same,Partial regression,NCI-H292-HGF cells,0/10
same,% TGI (day of study); compared to PBS vehicle,[3],42 (16) %
same,IC50,NCI-H292 cells [4]; read-out: Low attachment IC50,212 nM
same,IC50,NCI-H292 cells [4]; [8],> 700 nM
same,% TGI (day of study); compared to PBS vehicle,H1975 cells,91 (18) %
same,% TGI (day of study); compared to PBS vehicle,H1975 cells; listed as Cetuximab,91%
same,Efficacy (maximum lysis achieved),NCI-H1993 cells,21%
same,Potency (EC50 μg/ml),NCI-H1993 cells,0.0042 µg/mL
same,IC50,NCI-H1975 cells [5]; read-out: Low attachment IC50,> 700 nM
same,IC50,NCI-H1975 cells [5]; [8],> 700 nM
same,% TGI (day of study); compared to PBS vehicle,SNU-5 cells,49% and 49 (34) %
same,Efficacy (maximum lysis achieved),NCI-H441 cells,15%
same,Potency (EC50 μg/ml),NCI-H441 cells,0.013 µg/mL
same,Complete regression,[6]; [9],0/7
same,Partial regression,[6]; [9],0/7
same,% TGI (day of study); compared to PBS vehicle,"[6]; SKMES-HGF lung squamous, day 36, 20 mg/kg BIWx4wk, 20 mg/kg",88% and 88 (36) %
same,Complete regression,[6]; [10],6/8
same,Partial regression,[6]; [10],0/8
same,T − C (days) at 1000 mm^3,"[6]; SKMES-HGF, 20 mg/kg",31 days
same,Tumor volume (mm^3),"[6]; SKMES-HGF, day 1, 20 mg/kg",98 ± 5 mm^3
same,Tumor volume (mm^3),"[6]; SKMES-HGF, day 8, 20 mg/kg",60 ± 8 mm^3
same,Tumor volume (mm^3),"[6]; SKMES-HGF, day 15, 20 mg/kg",44 ± 23 mm^3
same,Tumor volume (mm^3),"[6]; SKMES-HGF, day 22, 20 mg/kg",42 ± 23 mm^3
same,Tumor volume (mm^3),"[6]; SKMES-HGF, day 29, 20 mg/kg",85 ± 60 mm^3
same,T/C (%),"[6]; SKMES-HGF, day 36, 20 mg/kg",13%
same,Tumor volume / Tumor Size (mm^3) at day 36,"[6]; SKMES-HGF, day 36, 20 mg/kg",125 ± 62 mm^3
same,Tumor volume (mm^3),"[6]; SKMES-HGF, day 50, 20 mg/kg",423 ± 115 mm^3
same,Tumor volume (mm^3),"[6]; SKMES-HGF, day 57, 20 mg/kg",650 ± 116 mm^3
same,Tumor volume (mm^3),"[6]; SKMES-HGF, day 67, 20 mg/kg",1257 ± 151 mm^3
same,Efficacy (maximum lysis achieved),NCI-H1975 cells [7],11%
same,Potency (EC50 μg/ml),NCI-H1975 cells [7],0.029 µg/mL
